A word on the IC50: it is the concentration needed to halve the response being measured.

Amino acid sequences for entries named in this document (tags omitted).
UniProt P04049, whole entry Y340E/Y341E: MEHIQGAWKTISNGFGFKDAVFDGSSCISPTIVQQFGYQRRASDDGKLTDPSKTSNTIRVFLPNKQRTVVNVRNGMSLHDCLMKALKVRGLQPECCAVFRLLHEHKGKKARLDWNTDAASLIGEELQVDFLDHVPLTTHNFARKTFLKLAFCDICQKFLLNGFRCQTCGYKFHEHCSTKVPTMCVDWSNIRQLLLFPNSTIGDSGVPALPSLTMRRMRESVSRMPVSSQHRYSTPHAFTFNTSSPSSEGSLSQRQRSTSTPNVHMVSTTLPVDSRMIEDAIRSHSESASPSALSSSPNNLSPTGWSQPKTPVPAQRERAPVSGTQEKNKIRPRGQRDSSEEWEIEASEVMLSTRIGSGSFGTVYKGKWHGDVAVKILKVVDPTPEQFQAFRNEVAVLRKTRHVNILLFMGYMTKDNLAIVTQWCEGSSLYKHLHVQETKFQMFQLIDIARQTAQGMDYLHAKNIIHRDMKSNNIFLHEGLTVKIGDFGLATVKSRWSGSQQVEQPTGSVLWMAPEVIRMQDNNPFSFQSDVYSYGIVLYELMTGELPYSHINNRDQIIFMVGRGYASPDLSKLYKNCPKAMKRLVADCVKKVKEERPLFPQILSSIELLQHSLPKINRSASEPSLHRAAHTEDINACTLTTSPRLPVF

The target in this test is C-Raf FL (full-length C-Raf with Y340E and Y341E activating mutations) (Homo sapiens (Human), UniProt P04049, Y340E/Y341E). It counts as biochemical. Conditions: full-length c-Raf 4 pM, ATP 3 uM, 10 nM biotinylated MEK1 kinase dead.
Regarding `Cc1ccc(NC(=O)c2ccnc(C(C)(C)C#N)c2)cc1-c1cc2[nH]cnc2c(N2CCOCC2)n1` [Example 206], half-maximal inhibition (IC50) was put at 1.62 nM. This counts as single-digit nanomolar.
`Cc1ccc(NC(=O)c2cccc(C(F)(F)F)c2)cc1-c1cc(N2CCOCC2)c2oc(=O)[nH]c2c1` [Example 207] gave an IC50 of 0.225 nM.
As for `Cc1ccc(NC(=O)c2cccc(C(F)(F)F)c2)cc1-c1cc(N2CCOCC2)cc2[nH]c(=O)oc12` [Example 208], half-maximal inhibition (IC50) required 1.1 nM.
`Cc1ccc(NC(=O)c2cccc(C(F)(F)F)c2)cc1-c1cc2[nH]cnc2c(N2CCOCC2)n1` [Example 209] showed an IC50 of 0.171 nM.
Take `Cc1ccc(NC(=O)c2ccnc(C(C)(C)C#N)c2)cc1-c1cc2[nH]cnc2c(N2CCOC[C@H]2C)n1` [Example 210]: half-maximal inhibition (IC50) required 2.73 nM.
Regarding `Cc1ncc(NC(=O)c2cc(C(F)(F)F)cc(S(C)(=O)=O)c2)cc1-c1ccnc(N2CCOCC2)c1` [Example 214], half-maximal inhibition (IC50) was put at 0.547 nM.
`Cc1ccc(NC(=O)c2ccnc(C(F)F)c2)cc1-c1cc(N2CCOCC2)c(=O)n(C)c1` [Example 215, 2-(difluoromethyl)-N-(4-methyl-3-(1-methyl-5-morpholino-6-oxo-1,6-dihydropyridin-3-yl)phenyl)isonicotinamide] came in with an IC50 of 0.785 nM. The IC50 values of the last two molecules are within 1.5-fold of each other.
